The list shows a part of the results, in another mix than the full data. Some results for these compounds are left out of this collection, so the calls shown say nothing about other tests. Records with an inconclusive call do not appear. The source made the active and inactive calls. Calls follow the shape of the dose curve; as a rule, active = well fitted inhibition curve with a large enough effect; inconclusive = small, poorly fitted or top-dose-only effect; inactive = no such curve, though single readings can be large or run the other way.
Assay: Primary qHTS assay for inhibitors of alpha-synuclein gene (SNCA) expression; also: nearly all actives have a fitted effect of over 45% in size
Details: HEK-293 SNCA-luciferase knock-in, luminescence, 24 h; at 57.2 µM (top of the series)
Description: Assay Submitter (PI): Daniel R. Scoles Ph.D.
Department of Neurology, University of Utah, Salt Lake City, Utah
Accumulation of alpha-synuclein is a main underlying pathological feature of Parkinson's disease (PD) and alpha-synucleinopathies, for which lowering expression of the alpha-synuclein gene (SNCA) is a potential therapeutic avenue. Using a cell-based luciferase reporter of SNCA expression we performed a quantitative high throughput screen (qHTS) of 155,885 compounds in dose response. The screening assay was generated using genome editing to insert the luciferase gene downstream and in frame of the SNCA gene in HEK-293 cells (1). A viability counterscreen using GF-AFC was used to eliminate cytotoxic and false positive compounds. After in silico analysis (clustering, removal of frequent hitter nuisance chemotypes), inhibitor compounds from the primary screen were selected for follow up and re-tested at 11-doses in the SNCA-luc cells (luciferase and GF-AFC confirmation), and in CMV-luc expressing cell line to flag general transcriptional repressors.
Described herein are the results of the primary screen for SNCA inhibitors; decrease in luciferase signal (inhibition of the SNCA gene expression) is the desired output for this assay.
1. Dansithong, W., Paul, S., Scoles, D. R., Pulst, S. M., and Huynh, D. P. (2015) Generation of SNCA Cell Models Using Zinc Finger Nuclease (ZFN) Technology for Efficient High-Throughput Drug Screening. PLoS ONE 10, e0136930.
SEQUENCE No. (e.g., 1, 2, 3, etc.); […] (e.g., Cells, Incubation, Reagent, etc.); VALUE; DESCRIPTION
1; Cells; 4 uL; Dispense 1500 HEK-293-SNCA-luc cells/well into Greiner 1536-well white / solid bottom tissue culture treated plate. The plate was covered with metal lids with gas-exchange holes.
2; Incubate; 24 hours; Incubate at 37C, 5% CO2, 95% RH.
3; Compounds; 23 nL; Compounds and controls were transferred via a Kalypsys Pin Tool (Wako USA) equipped with a 1536-slotted pin array. The plate was covered with metal lids with gas-exchange holes.
4; Incubate; 24 hours; Incubate at 37C, 5% CO2, 95% RH.
5; Dispense; 1 uL; Dispense Gly-Phe-7-amino-4-trifluoromethylcoumarin (GF-AFC, prepared at 125 uM in PBS) was added. The plate was covered with metal lids with gas-exchange holes.
6; Incubate; 30 min; Incubate at 37C, 5% CO2.
7; Detector; Fluorescence; Measure fluorescence with ViewLux microplate reader (PerkinElmer) equipped with 405/10 excitation and 540/25 emission filters.
8; Dispense; 3 uL; Dispense ONE-Glo ([…]) lucifase detection reagent was added to each well. Plates were covered with metal lids with gas-exchange holes.
9; Incubate; 15 min; Incubate at room temperature.
10; Detector; Luminescence; Measure luminescence with ViewLux microplate reader (PerkinElmer) equipped with clear filters.
NOTES (numbers refer to sequence above)
1; HEK-293-SNCA-luc were cultured and suspended in phenol-red free DMEM (4.5 g/L glucose, 25 mM HEPES, cat #21063 (Thermo)).
3; Compounds were added to the assay plate in an 11-point intra plate dose response, 1:3 titration in DMSO with a final concentration range of […]. Vehicle-only plates, with DMSO being pin-transferred to every well, were inserted at the beginning of screening runs to confirm expected assay performance. Activity was normalized to wells containing medium only (-100% activity, full inhibition) and SNCA-luc cells treated with DMSO vehicle control (0% activity), contained on the same plate as test samples.
10; Signals were analyzed, and dose-response curves were fit using the Hill equation. Compounds in curve classes -1.1, -1.2, -2.1, -2.2 in the SNCA-luc assay were considered active. Compounds were eliminated from further consideration if also active (curve class -1.1, -1.2, -1.3, -1.4, -2.1, -2.2, -2.3, -2.4) in the GF-AFC cytotoxicity assay.

Which activity change, negative = inhibition does the source give for `COc1ccc(C(=O)NCC2(N(C)C)CCCCC2)cc1Cl` here?
The activity change, negative = inhibition was inactive: 19.1%.

With `CC(C)Oc1ccc(C(=O)NCC2(N(C)C)CCCCC2)cc1` as the compound, how does the activity change, negative = inhibition read?
The activity change, negative = inhibition was inactive: 15.2%.

Which activity change, negative = inhibition does the source give for `COc1cc(C(=O)NCC2(N(C)C)CCCCC2)cc(OC)c1OC` here?
The activity change, negative = inhibition was inactive: -7.9%.

With `Cc1cccc(C(=O)NCC2(N(C)C)CCCCC2)c1` as the compound, how does the activity change, negative = inhibition read?
Its activity change, negative = inhibition is inactive: 3.29%.

Which activity change, negative = inhibition does the source give for `CC(C)COc1ccc(C(=O)NCC2(N(C)C)CCCCC2)cc1` here?
Its activity change, negative = inhibition is inactive: 7.18%.

For `CN(C)C1(CNC(=O)c2ccccc2F)CCCCC1`, which activity change, negative = inhibition is on record?
The activity change, negative = inhibition was inactive: -18.3%.

With `CCOc1cccc(C(=O)NCC2(N(C)C)CCCCC2)c1` as the compound, how does the activity change, negative = inhibition read?
Its activity change, negative = inhibition is inactive: -3.83%.

For `CCCCOc1ccccc1C(=O)NCC1(N(C)C)CCCCC1`, which activity change, negative = inhibition is on record?
Its activity change, negative = inhibition is inactive: 7.78%.

For `CN(C)C1(CNC(=O)c2ccccc2[N+](=O)[O-])CCCCC1`, which activity change, negative = inhibition is on record?
The activity change, negative = inhibition was inactive: -5.64%.

Source: PubChem BioAssay AID1671194 (National Center for Advancing Translational Sciences (NCATS), 2021)
